Assay [1] deals with αvβ3 integrin (human (endogenous in MDA-MB-231 and HUVEC)) (UniProt P06756).
Assay [2] shares this target. This is another data set of the same source.

Amino acid sequences for entries named in this document (tags omitted). Residues count along the entry.
UniProt P06756, 31-1048, chain 1 of 2: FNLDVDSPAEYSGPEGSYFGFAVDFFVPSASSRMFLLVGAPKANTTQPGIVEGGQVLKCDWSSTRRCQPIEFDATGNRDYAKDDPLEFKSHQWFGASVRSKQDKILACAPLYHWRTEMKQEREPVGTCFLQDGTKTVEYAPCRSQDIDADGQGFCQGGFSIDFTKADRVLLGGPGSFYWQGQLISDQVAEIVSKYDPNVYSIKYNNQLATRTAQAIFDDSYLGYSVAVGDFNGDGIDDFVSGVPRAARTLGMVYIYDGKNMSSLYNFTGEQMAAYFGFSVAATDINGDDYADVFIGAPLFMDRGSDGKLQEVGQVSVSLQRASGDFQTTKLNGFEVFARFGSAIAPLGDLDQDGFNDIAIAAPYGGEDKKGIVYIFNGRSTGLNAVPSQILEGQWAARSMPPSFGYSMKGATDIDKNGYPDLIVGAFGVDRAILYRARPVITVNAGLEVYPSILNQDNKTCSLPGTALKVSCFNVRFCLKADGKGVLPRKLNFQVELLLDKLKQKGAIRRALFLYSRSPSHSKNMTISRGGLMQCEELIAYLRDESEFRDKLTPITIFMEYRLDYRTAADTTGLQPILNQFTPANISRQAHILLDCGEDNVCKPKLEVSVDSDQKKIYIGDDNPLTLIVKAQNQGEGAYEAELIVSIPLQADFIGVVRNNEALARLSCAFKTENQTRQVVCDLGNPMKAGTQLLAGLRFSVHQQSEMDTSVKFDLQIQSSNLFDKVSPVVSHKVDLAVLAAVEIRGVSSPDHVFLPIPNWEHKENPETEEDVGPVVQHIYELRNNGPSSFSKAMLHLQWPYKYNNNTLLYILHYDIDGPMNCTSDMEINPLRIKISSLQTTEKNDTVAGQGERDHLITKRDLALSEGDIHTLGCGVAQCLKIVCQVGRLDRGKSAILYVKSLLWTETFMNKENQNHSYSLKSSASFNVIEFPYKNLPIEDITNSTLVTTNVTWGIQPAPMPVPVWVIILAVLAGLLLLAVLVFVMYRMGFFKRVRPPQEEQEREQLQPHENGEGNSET

For DisBa-01 (natural protein), in assay [1], the IC50 of inhibition of MDA-MB-231 transendothelial migration through a HUVEC monolayer, hypoxia turned out to be 5.22 nM and the IC50 of inhibition of MDA-MB-231 transendothelial migration through a HUVEC monolayer, normoxia was 5.24 nM. In assay [2], this substance displayed an IC50 of inhibition of MDA-MB-231 cell migration, Boyden chamber, hypoxia of 19.9 nM and an IC50 of inhibition of MDA-MB-231 cell migration, Boyden chamber, normoxia of 13.4 nM.

The record behind these values is paper PMC8835904.
